Test results: ChEMBL document CHEMBL4477216, “Discovery and Optimization of Small Molecule Splicing Modifiers of Survival Motor Neuron 2 as a Treatment for Spinal Muscular Atrophy” (J Med Chem, 2016)

Organism: Homo sapiens
Experiment: Inhibition of mRNA splicing of SMN2 exon 7 in GM03813 fibroblasts derived from SMA patient assessed as compound concentration required to increase SMN protein level by 1.5 times after 24 hrs by HTRF assay

With `Cc1cn2cc(-c3cc4ccc(N5CCN(C)CC5)cc4c(=O)o3)nc2c(C)n1` as the compound, how does the EC1.5 read?
Its EC1.5 is 120 nM.
